Measured values taken from PubChem BioAssay AID504326 (The Scripps Research Institute Molecular Screening Center, 2011).
The entries are a selection whose mix differs from that of the whole data set. Active and inactive are the calls of the source. No stated cut-off is given here; in the data, active means activation above about 18%; inactive means the rest.

Protein sequences, listed by entry. Tags and fused reporters are not part of them.
UniProt P35372, whole entry, looked up: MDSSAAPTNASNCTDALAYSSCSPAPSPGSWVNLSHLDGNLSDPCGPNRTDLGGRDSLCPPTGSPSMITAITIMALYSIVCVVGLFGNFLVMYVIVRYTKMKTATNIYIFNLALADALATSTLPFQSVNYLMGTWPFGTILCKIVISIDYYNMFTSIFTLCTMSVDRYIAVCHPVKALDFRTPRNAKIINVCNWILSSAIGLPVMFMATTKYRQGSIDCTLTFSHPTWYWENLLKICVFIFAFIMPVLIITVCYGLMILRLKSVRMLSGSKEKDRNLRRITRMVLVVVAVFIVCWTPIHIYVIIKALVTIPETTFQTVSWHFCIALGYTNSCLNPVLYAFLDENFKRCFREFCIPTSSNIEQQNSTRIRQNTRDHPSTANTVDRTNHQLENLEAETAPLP
UniProt P41143, whole entry, looked up: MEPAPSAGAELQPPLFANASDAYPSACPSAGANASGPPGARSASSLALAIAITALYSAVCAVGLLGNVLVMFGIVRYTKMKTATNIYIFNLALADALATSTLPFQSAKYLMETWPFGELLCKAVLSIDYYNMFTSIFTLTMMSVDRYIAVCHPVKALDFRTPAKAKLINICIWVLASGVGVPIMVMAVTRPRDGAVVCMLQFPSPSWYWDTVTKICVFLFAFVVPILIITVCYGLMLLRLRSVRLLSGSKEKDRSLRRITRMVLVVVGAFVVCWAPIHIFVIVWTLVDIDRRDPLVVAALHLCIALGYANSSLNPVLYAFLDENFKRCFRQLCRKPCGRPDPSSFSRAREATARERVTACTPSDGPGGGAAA

These molecules were tested against Mu-type opioid receptor (Homo sapiens) + Delta-type opioid receptor (Homo sapiens) (UniProt P35372+P41143) (assay: agonists of OPRM1-OPRD1 heterodimerization, primary screen, cell-based, luminescence (AID 504326;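 further: 0% = vehicle-treated cells and 100% = reference agonist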)). Conditions: cells, at 9.3 µM, active compounds read high.

SMILES | activation
Cc1ccc(S(=O)(=O)c2nc(-c3ccccc3Cl)oc2N(C)C2CCN(C)CC2)cc1 | inactive: 0.87%
COc1ccc(S(=O)(=O)N2CCn3c2nc2ccccc23)cc1 | inactive: 0.53%
CSc1nc2ccccc2n1CC(=O)Nc1ccccc1 | inactive: -1.74%
Cc1nc2ccccc2n1CCN1CCOCC1 | inactive: -2.72%
Cc1ccc2c(c1)C1CN(C)CCC1N2C(=O)Cc1cccs1 (configuration not stated) | inactive: 1.51%
CN1C(=O)C2(Nc3ccccc3-c3nc4ccccc4n32)c2ccccc21 (configuration not stated) | inactive: -3.02%
CCC(C)[C@H](NC(=O)N1CCn2c1nc1ccccc12)C(=O)NCc1ccccc1 (some centres not stated) | inactive: 1.66%
Cc1ccc(NC(=O)Cn2cnc3ccccc32)cc1C | inactive: -0.44%
Cc1ccc2c(c1)[C@@H]1CN(C)CC[C@@H]1N2C(=O)Nc1cccc(C(F)(F)F)c1 | inactive: 3.48%
CCOC(=O)c1ccccc1NC(=O)CSc1nc2ccccc2n1CC(=O)N1CCCC1 | inactive: -1.15%
Cc1ccc(-c2csc(NC(=O)Cn3cnc4c3c(=O)n(C)c(=O)n4C)n2)cc1C | inactive: -1.37%
COc1ccc(N2C(=O)CC(n3cnc4ccccc43)C2=O)cc1 (configuration not stated) | inactive: -2.25%
COc1ccccc1NC(=O)Cn1cnc2c1c(=O)n(C)c(=O)n2C | inactive: -1.91%
CCN1C(=O)C2(Nc3ccccc3-c3nc4ccccc4n32)c2cc(OC)ccc21 (configuration not stated) | inactive: -0.16%
O=C(Cn1cnc2c(NC(=O)OCc3ccccc3)ncnc21)NCc1ccccn1 | inactive: -0.95%
Cc1nc2ccccc2n1CC(=O)NN | inactive: 0%
CCc1ccc(NC(=O)Cn2c(SC)nc3ccccc32)cc1 | inactive: -0.41%
CCC(C)N(CC(C)C)C(=S)SC(NC(C)=O)C(Cl)(Cl)Cl (configuration not stated) | inactive: -0.67%
CC1CC(C)CN(C(=O)Cn2c(SCC(=O)N3CCc4ccccc4C3)nc3ccccc32)C1 (configuration not stated) | inactive: -0.49%

SMILES | activation
Cc1ccc(NC(=O)CCC(=O)N/N=C/C=C/c2ccccc2)cc1 | inactive: 2.24%
Cc1nc2ccccc2n1CC(=O)N/N=C\c1ccccn1 | inactive: 2.04%
CC(C)NC(=O)Cn1c(SCC(=O)N2CCCc3ccccc32)nc2ccccc21 | inactive: -2.06%
Cc1ccc2c(c1)C1CN(C)CCC1N2C(=O)COc1ccc(S(=O)(=O)N2CCOCC2)cc1 (configuration not stated) | inactive: -1.3%
CCOC(=O)c1ccc(NC(=O)C(C)(CCl)SC)cc1 (configuration not stated) | inactive: -2.08%
O=C(Cn1c(-c2cscn2)nc2ccccc21)Nc1cc(F)ccc1F | inactive: -1.76%
Cc1ccc2c(c1)C1C[N+](C)(CC(=O)c3ccc(Cl)cc3Cl)CCC1N2C(=O)c1ccc(F)cc1 (configuration not stated) | inactive: -0.81%
CCN(CC)C(=O)Cn1cnc2c1c(=O)n(C)c(=O)n2C | inactive: -1.81%
CC(C)N(C(=O)Cn1c(Cl)nc2ccccc21)C(C)C | inactive: -1.66%
COc1ccc(CCNC(=O)[C@H](CC(C)C)NC(=O)N2CCn3c2nc2ccccc23)cc1OC | inactive: -0.54%
O=C(c1ccccc1Cl)N1CCn2c1nc1ccccc12 | inactive: -2.39%
CCC(NC(=O)Cn1cnc2c(=O)n(C)c(=O)n(C)c21)c1ccccc1 (configuration not stated) | inactive: -1.17%
O=C1Cn2c(nc3ccccc32)-c2ccccc2N1 | inactive: -0.33%
O=C(OC1CN2CCC1CC2)c1cccc([N+](=O)[O-])c1 (configuration not stated) | inactive: -1.84%
CCC(C)[C@H](NC(=O)N1CCn2c1nc1ccccc12)C(=O)NCC1CCCO1 (some centres not stated) | inactive: -1.66%
CCCCOc1ccccc1NC(=O)Cn1c(-c2nonc2N)nc2ccccc21 | inactive: 4.07%
CCc1cccc(C)c1N(C(=O)Cn1c(=O)[nH]c2ccccc21)C(C)COC (configuration not stated) | inactive: 0.54%
CSc1nc(N)nc2c1ncn2CC(=O)N1CCN(Cc2c(C)cc(C)cc2C)CC1 | inactive: 14.9%
COc1cccc(CNc2nc3ccccc3n2CCN2CCCCC2)c1OC | inactive: 2.39%

SMILES | activation
CCN(CC)CCn1c(NC(=O)c2ccc(C(F)(F)F)cc2)nc2ccccc21 | inactive: 0.98%
Cn1c(=O)c2c(nc(CN3CCOCC3)n2CCN2CCOCC2)n(C)c1=O | inactive: -0.02%
O=S(=O)(Nc1ccc2c(c1)nc1n2CCN(Cc2ccccc2)C1)c1ccc(F)cc1 | inactive: -2.54%
CC1Cc2ccccc2N1C(=O)Cn1cnc2ccccc21 (configuration not stated) | inactive: -0.83%
C[C@H](O)[C@@H]1C(=O)N2CCc3ccc(N4CCN(C)CC4)cc3[C@@H]2C[C@@H]1N(C)C(=O)c1ccc(C#N)cc1 | inactive: 0.68%
CCN(CC)C(=O)Cn1c(=O)n(Cc2ccccc2Cl)c2c1c(=O)n(C)c(=O)n2C | inactive: -0.28%
O=C(Cn1cnc2ccccc21)Nc1ccc(F)c(F)c1 | inactive: 1.99%
COC(=O)c1cccc(NC(=O)Cn2cnc3c2c(=O)n(C)c(=O)n3C)c1 | inactive: -1.37%
O=C(COc1ccccc1)OC1CN2CCC1CC2 (configuration not stated) | inactive: -1.59%
Cc1ccc2c(c1)C1CN(C)CCC1N2S(=O)(=O)c1cccc(C(F)(F)F)c1 (configuration not stated) | inactive: 1.67%
O=C(Nc1ccncc1[N+](=O)[O-])c1ccc([N+](=O)[O-])cc1[N+](=O)[O-] | inactive: 6.65%
Cc1nc2cc(C(F)(F)F)ccc2n1CCNc1nc(-c2ccc(F)cc2)cs1 | inactive: 0.66%
CCOCN(C(=O)Cn1cnc2ccccc21)c1c(C)cccc1CC | inactive: -2.33%
c1ccc(Cn2c(CNc3nc4ccccc4n3CCN3CCOCC3)nc3ccccc32)cc1 | inactive: -2.41%
CCC(C(=O)NC1CCCCC1)n1c(SCc2cccc(C)c2)nc2ccncc21 (configuration not stated) | inactive: -0.13%
O=C(C1CCCN(S(=O)(=O)c2cccnc2)C1)N1CCn2c1nc1ccccc12 (configuration not stated) | inactive: -0.06%
O=C(Cn1cnc2ccccc21)Nc1ccc(SC(F)F)cc1 | inactive: 2.87%
CC(NC(=O)Cn1cnc2c1c(=O)n(C)c(=O)n2C)c1ccccc1 (configuration not stated) | inactive: 1.05%
COc1ccc(CNC(=O)Cn2cnc3c(NCc4ccccc4)ncnc32)cc1 | inactive: -4.22%
